In this assay the target is human PAD4 (hPAD4) (Homo sapiens, UniProt Q9UM07). Nature of the assay: RFMS human PAD4 functional assay (rapid-fire mass spectrum). The conditions noted are these: read-out: hPAD4 RFMS IC50; 5 nM hPAD4 enzyme, 250 μM BAEE, 50 μM Calcium; 30 min preincubation, 90 min reaction at 37° C.

Chains of the proteins cited; added tags and fusions are not shown.
UniProt Q9UM07, whole entry: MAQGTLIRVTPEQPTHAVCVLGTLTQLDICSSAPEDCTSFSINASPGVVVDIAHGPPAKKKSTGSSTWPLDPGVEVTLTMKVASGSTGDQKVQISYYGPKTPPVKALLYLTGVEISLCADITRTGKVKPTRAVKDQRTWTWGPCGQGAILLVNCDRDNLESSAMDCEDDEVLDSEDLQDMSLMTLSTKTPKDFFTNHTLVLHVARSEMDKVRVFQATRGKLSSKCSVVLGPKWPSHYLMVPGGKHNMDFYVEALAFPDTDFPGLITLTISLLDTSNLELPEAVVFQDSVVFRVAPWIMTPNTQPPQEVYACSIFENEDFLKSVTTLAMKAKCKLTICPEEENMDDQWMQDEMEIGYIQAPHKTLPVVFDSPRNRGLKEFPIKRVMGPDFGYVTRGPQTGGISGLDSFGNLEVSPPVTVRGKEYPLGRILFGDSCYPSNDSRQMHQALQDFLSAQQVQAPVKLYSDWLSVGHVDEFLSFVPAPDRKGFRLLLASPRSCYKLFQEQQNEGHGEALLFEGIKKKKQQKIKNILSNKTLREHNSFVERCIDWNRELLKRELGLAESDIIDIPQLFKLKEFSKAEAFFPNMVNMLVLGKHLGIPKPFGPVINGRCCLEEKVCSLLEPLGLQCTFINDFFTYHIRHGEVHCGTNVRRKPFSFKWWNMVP

As usually defined, the IC50 is the concentration that inhibits the measured activity by half.

As for `COc1cc(C(=O)N2C[C@H]3CC[C@@H]2[C@@H]3N)cc2nc(-c3cc4cccnc4n3CC3CC3)n(CC3CN(c4ccncn4)C3)c12`, the IC50 worked out at 73 nM.

Source of the values: US12692254B2, “Benzimidazole inhibitors of PAD enzymes” (BRISTOL-MYERS SQUIBB COMPANY, priority 2018, dated 2026).
